This is an account of results in publication PMC11742319, “Phosphorylation regulates the chromatin remodeler SMARCAD1 in nucleosome binding, ATP hydrolysis, and histone exchange”.

The data set has as its target T1, WT SMARCAD1, dephosphorylated V974A (human) (UniProt Q9H4L7).
T1 sequence: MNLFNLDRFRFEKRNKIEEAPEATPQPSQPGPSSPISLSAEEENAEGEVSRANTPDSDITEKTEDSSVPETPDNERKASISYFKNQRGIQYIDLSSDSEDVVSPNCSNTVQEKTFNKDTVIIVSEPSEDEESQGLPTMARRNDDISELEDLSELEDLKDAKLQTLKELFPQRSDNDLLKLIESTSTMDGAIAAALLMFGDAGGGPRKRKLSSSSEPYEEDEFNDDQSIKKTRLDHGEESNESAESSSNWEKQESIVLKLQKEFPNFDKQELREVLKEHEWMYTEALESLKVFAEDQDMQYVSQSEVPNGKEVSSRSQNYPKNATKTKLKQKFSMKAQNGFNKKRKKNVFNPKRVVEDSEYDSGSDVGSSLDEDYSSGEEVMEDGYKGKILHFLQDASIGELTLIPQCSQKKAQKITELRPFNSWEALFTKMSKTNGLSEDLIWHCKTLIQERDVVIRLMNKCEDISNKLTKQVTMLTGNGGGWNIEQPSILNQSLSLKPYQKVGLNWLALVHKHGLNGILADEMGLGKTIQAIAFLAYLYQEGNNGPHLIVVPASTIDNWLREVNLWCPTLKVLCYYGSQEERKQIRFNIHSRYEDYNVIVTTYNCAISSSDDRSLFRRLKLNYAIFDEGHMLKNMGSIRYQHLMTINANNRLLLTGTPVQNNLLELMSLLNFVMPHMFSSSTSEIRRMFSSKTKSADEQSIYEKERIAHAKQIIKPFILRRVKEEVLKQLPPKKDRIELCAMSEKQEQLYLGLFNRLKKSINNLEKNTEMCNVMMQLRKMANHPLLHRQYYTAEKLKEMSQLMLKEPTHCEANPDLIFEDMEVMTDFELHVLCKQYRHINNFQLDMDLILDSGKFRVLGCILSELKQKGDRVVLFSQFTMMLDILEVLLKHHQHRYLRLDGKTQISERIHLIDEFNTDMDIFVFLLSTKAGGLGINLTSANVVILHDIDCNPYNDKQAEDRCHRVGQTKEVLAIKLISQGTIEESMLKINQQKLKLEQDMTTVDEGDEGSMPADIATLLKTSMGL
Description: fluorescence polarization. To be noted: dephosphorylated (CIP); FP: 50 mM HEPES pH 7.5, 2 mM DTT, 10% glycerol, 0.01% CHAPS, 0.01% NP-40, no added salt stated, room temperature 30 min; 10 nM nucleosome or DNA, 0-5 uM …. For orientation: Fluorescence polarisation rises when a labelled molecule tumbles more slowly, as on binding a larger partner.

As for “CGAGCCAGGCCTGAGAATCCGGTGCCGAGGCCGCTCAATTGGTCGTAGACAGCTCTAGCACCGCTTAAACGCACGTACGCGCTGTCCCCCGCGTTTTAACCGCCAAGGGGATTACTCCCTAGTCTCCAGGCACGTGTCAGATATATACATCCAGGCCTTGTGTCG (double strand) [165 bp 601 nucleosome (7N11)]”, the Kd is 85 nM.

As a reminder, the Kd is the constant that tells how readily two partners part at equilibrium.
